Assay results: PMC8341910, “Structural and biophysical insights into the mode of covalent binding of rationally designed potent BMX inhibitors” (RSC Chemical Biology, 2020)

Protein sequences, listed by entry. Tags and fused reporters are not part of them. Residues count along the entry.
UniProt P51813, whole entry: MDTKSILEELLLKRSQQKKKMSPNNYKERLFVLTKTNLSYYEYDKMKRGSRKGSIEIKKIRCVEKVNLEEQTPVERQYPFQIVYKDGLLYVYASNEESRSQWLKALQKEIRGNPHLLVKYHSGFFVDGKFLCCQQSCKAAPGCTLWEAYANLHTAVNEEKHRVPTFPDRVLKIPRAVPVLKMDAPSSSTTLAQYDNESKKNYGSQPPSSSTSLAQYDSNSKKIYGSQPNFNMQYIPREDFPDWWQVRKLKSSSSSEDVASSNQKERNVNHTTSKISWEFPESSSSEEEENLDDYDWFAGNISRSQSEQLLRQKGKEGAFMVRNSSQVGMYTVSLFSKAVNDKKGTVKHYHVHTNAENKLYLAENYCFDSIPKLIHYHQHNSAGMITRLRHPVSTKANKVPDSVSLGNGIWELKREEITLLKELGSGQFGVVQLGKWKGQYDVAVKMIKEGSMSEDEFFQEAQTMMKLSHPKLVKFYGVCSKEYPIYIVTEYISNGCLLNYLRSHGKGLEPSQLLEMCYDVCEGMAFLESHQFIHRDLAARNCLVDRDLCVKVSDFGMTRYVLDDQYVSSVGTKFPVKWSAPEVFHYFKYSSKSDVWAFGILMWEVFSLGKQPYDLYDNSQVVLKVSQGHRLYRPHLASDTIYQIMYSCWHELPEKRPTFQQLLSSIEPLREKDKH
UniProt P51813, 417-675 limits assumed: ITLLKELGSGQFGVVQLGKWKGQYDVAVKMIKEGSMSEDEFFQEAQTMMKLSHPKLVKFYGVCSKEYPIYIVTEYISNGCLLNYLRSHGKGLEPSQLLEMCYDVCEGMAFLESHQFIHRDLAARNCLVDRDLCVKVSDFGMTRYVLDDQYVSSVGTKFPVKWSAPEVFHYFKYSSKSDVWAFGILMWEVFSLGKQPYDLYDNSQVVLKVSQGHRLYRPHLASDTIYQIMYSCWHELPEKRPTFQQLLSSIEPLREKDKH

What was measured:
[1] = target: recombinant human BMX protein (hBMX) (Homo sapiens, UniProt P51813); assay: Differential scanning fluorimetry (DSF); type: binding; details: 100 μM compound
[2] = target: hBMX (Homo sapiens, UniProt P51813); details: read-out: BMX IC50; Experiment 2 of Fig. S3; control commercial BMX-IN-1
[3] = Dynamic light scattering, colloidal aggregation; type: physicochemical; details: measured at 10 µM, 1 µM and 100 nM; water, 25 °C

SMILES	ΔTm ([1]; versus apo-BMX) [°C]	Average Tm of BMX with compound ([1]; apo-BMX Tm 51.8-52.2 °C) [°C]	IC50 [2] [nM]	DLS maximum soluble concentration at which no aggregates are observed [3] [µM]
C=CC(=O)Nc1cc(-n2c(=O)ccc3cnc4ccc(-c5ccc(NC(=O)OC)cc5)cc4c32)ccc1C	8.09±0.06	60.02±0.06	50	–
C=CC(=O)Nc1cc(Nc2c(C(=O)OCC)cnc3ccc(-c4ccc(NS(C)(=O)=O)cc4)cc23)ccc1C	–	–	410	< 0.1
